{"sequences": {"note": "Chains of the proteins cited; added tags and fusions are not shown.", "UniProt P35377, whole entry": "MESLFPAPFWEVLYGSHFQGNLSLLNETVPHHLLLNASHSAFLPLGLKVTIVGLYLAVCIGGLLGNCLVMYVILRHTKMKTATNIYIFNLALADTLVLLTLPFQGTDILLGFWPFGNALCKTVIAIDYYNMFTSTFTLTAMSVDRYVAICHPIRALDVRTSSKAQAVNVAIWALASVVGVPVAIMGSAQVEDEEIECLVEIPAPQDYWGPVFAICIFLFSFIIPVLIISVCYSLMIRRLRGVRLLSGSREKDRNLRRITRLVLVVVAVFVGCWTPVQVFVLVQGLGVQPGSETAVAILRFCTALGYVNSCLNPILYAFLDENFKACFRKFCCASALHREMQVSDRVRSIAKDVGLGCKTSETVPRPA"}, "source": "patent US6660496B1", "about": "(priority 1993, dated 2003)", "target": "kappa3 opioid receptor (Mus musculus, UniProt P35377)", "assay": "3H-Diprenorphine binding in COS-7 cells expressing the kappa3 opioid receptor clone", "conditions": "0.5 mg protein/tube, means±s.e.m.", "description": "The XhoI/BamHI fragment of the clone was subcloned into a pSRα expression vector at the XhoI/BamHI sites. COS-7 cells were transfected with 30 μg of plasmid DNA/150 mm plate using DEAE-dextran. The transfected cells were grown at 37° C. for 72 hours and the membranes were harvested for binding assays. Control binding was determined using COS-7 cells which were treated with DEAE-dextran and incubated under the same conditions as the transfected cells. ^3H-Diprenorphine binding was determined in samples with 0.5 mg protein/tube. All binding was assayed in triplicate, except for nonspecific binding in the pSRα which was assayed in duplicate. Only specific opioid binding (i.e., total minus nonspecific) is presented. Results are the means±s.e.m.\nThe XhoI/BamHI fragment of the clone was obtained and subcloned into a pSRα expression vector at the XhoI/BamHI sites and then transfected the COS-7 cells, which were assayed for opioid binding after 72 hours. To control for the treatments, the binding in COS-7 cells was also examined, which cells were exposed to DEAE-dextran and incubated under the same conditions as the transfected cells. Additional studies using pCMV vectors and the same transfection techniques reveal binding values virtually identical to those seen in this control (data not shown). Opioid binding was determined with the antagonist ^3H-diprenorphine.", "note": "This is a selection: effects in other tests are not listed, and their absence says nothing.", "data": [{"substance": "3H-Diprenorphine", "values": [{"measurement": "3H-Diprenorphine Binding (cpm)", "setting": "control COS-7 cells treated with DEAE-dextran only, specific binding", "value": "157 ± 20", "unit": "cpm"}, {"measurement": "3H-Diprenorphine Binding (cpm)", "setting": "membranes of COS-7 cells transfected with the clone in pSRα, specific binding (total minus nonspecific)", "value": "789 ± 79", "unit": "cpm"}]}]}
